Assay results published in US20070105759A1 (priority 2003, published 2007).

Amino acid sequences for entries named in this document (tags omitted).
UniProt P32245, whole entry: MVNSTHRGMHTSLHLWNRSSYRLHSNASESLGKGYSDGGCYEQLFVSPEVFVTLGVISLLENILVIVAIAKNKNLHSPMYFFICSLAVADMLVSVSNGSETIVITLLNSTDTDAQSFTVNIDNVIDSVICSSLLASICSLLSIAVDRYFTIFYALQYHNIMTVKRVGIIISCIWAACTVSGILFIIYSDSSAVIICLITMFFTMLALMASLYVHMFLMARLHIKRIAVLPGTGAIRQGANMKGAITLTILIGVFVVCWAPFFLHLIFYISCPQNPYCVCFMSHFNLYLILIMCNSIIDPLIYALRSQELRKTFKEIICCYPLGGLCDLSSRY

These compounds were tested against T1, MC4 (Homo sapiens, UniProt P32245) (assay: not given). Details: read-out: MC4 Ki.
Compound `CC(=O)N[C@@H](Cc1ccc(O)cc1)C(=O)N[C@@H](CCCNC(=N)N)C(=O)N[C@H]1CSSCC[C@@H](C(N)=O)NC(=O)[C@H](Cc2c[nH]c3ccccc23)NC(=O)[C@H](CCCNC(=N)N)NC(=O)[C@@H](Cc2ccccc2)NC(=O)[C@H](Cc2c[nH]cn2)NC(=O)[C@H](CCC(=O)O)NC1=O` [Compound No. 192, Ac-Tyr-Arg-cyclo[Cys-Glu-His-D-Phe-Arg-Trp-hCys]-NH2] has a Ki of 36.7 nM. For `CC(=O)N[C@@H](CCCNC(=N)N)C(=O)N[C@H]1CSSC[C@@H](C(N)=O)NC(=O)[C@H](Cc2c[nH]c3ccccc23)NC(=O)[C@H](CCCNC(=N)N)NC(=O)[C@@H](Cc2ccccc2)NC(=O)[C@H](Cc2c[nH]cn2)NC(=O)[C@H](CS(=O)(=O)O)NC1=O` [Compound No. 26, Ac-Arg-cyclo[Cys-Cya-His-D-Phe-Arg-Trp-Cys]-NH2], the Ki was 0.71 nM. Work on `CC(=O)N[C@@H](CCCNC(=N)N)C(=O)N[C@H]1CSSCC[C@@H](C(N)=O)NC(=O)[C@H](Cc2c[nH]c3ccccc23)NC(=O)[C@H](CCCNC(=N)N)NC(=O)[C@@H](Cc2ccccc2)NC(=O)[C@H](Cc2c[nH]cn2)NC1=O` [Compound No. 189, Ac-Arg-cyclo[Cys-His-D-Phe-Arg-Trp-hCys]-NH2] yielded a Ki of 2.72 nM. For `N=C(N)NCCC[C@@H]1NC(=O)[C@@H](Cc2ccccc2)NC(=O)[C@H](Cc2c[nH]cn2)NC(=O)[C@H](CCC(=O)O)NC(=O)[C@@H](NC(=O)[C@@H](CCCNC(=N)N)NS(=O)(=O)c2ccc3ccccc3c2)CSSC[C@@H](C(N)=O)NC(=O)[C@H](Cc2c[nH]c3ccccc23)NC1=O` [Compound No. 64, N-(2-naphthalenesulfonyl)-D-Arg-cyclo[Cys-Glu-His-D-Phe-Arg-Trp-Cys]-NH2], the Ki was 0.62 nM. Work on `CC(=O)N[C@@H](Cc1ccc(O)cc1)C(=O)N[C@@H](CCCNC(=N)N)C(=O)N[C@H]1CCSSC[C@@H](C(=O)O)NC(=O)[C@H](Cc2c[nH]c3ccccc23)NC(=O)[C@H](CCCNC(=N)N)NC(=O)[C@@H](Cc2ccccc2)NC(=O)[C@H](Cc2c[nH]cn2)NC1=O` [Compound No. 165, Ac-Tyr-Arg-cyclo[hCys-His-D-Phe-Arg-Trp-Cys]-OH] yielded a Ki of 1.45 nM. `CC(=O)N[C@@H](Cc1ccc(O)cc1)C(=O)N[C@@H](CCCNC(=N)N)C(=O)N[C@H]1CSSC[C@@H](C(N)=O)NC(=O)[C@H](Cc2c[nH]c3ccccc23)NC(=O)[C@H](CCCNC(=N)N)NC(=O)[C@@H](Cc2ccccc2)NC(=O)[C@H](Cc2c[nH]cn2)NC(=O)[C@H](Cc2ccc(O)cc2)NC1=O` [Compound No. 24, Ac-Tyr-Arg-cyclo[Cys-Tyr-His-D-Phe-Arg-Trp-Cys]-NH2] gave a Ki of 0.44 nM. For `CC(=O)N[C@@H](Cc1ccc(O)cc1)C(=O)N[C@@H](CCCNC(=N)N)C(=O)N[C@H]1CSSC[C@@H](C(N)=O)NC(=O)[C@H](Cc2c[nH]c3ccccc23)NC(=O)[C@H](CCCNC(=N)N)NC(=O)[C@@H](Cc2ccccc2)NC(=O)[C@H](Cc2c[nH]cn2)NC(=O)CNC1=O` [Compound No. 12, Ac-Tyr-Arg-cyclo[Cys-Gly-His-D-Phe-Arg-Trp-Cys]-NH2], the Ki was 1.1 nM. In the case of `CC(=O)N[C@@H](Cc1ccc(O)cc1)C(=O)N[C@@H](CCCNC(=N)N)C(=O)N[C@H]1CSSC[C@@H](C(N)=O)NC(=O)[C@H](Cc2c[nH]c3ccccc23)NC(=O)[C@H](CCCNC(=N)N)NC(=O)[C@@H](Cc2ccccc2)NC(=O)[C@H](Cc2c[nH]cn2)NC(=O)[C@H](CCCNC(=N)N)NC1=O` [Compound No. 4, Ac-Tyr-Arg-cyclo[Cys-Arg-His-D-Phe-Arg-Trp-Cys]-NH2], the Ki is reported as 0.23 nM.

Each compound was assayed against T1, MC4 (assay: biochemical). Details: not given.
With `N=C(N)NCCC[C@@H]1NC(=O)[C@@H](Cc2ccccc2)NC(=O)[C@H](Cc2c[nH]cn2)NC(=O)[C@H](CCC(=O)O)NC(=O)[C@@H](NC(=O)[C@@H](CCCNC(=N)N)NC(=O)CCC(=O)NS(=O)(=O)c2ccc3ccccc3c2)CSSC[C@@H](C(N)=O)NC(=O)[C@H](Cc2c[nH]c3ccccc23)NC1=O` [Compound No. 65, N-(2-naphthalenesulfonylamino-4-oxo-butyryl)-D-Arg-cyclo[Cys-Glu-His-D-Phe-Arg-Trp-Cys]-NH2] the Ki was 6.53 nM. `CC(=O)N[C@@H](Cc1ccc(O)cc1)C(=O)N[C@@H](CCCNC(=N)N)C(=O)N[C@H]1CSSC[C@@H](C(N)=O)NC(=O)[C@H](Cc2c[nH]c3ccccc23)NC(=O)[C@H](CCCNC(=N)N)NC(=O)[C@@H](Cc2ccccc2)NC(=O)[C@H](Cc2ncn(Cc3ccccc3)n2)NC(=O)[C@H](CCC(=O)O)NC1=O` [Compound No. 108] showed a Ki of 31.4 nM. With `CC(=O)N[C@@H](Cc1ccc(O)cc1)C(=O)N[C@@H](CCCNC(=N)N)C(=O)N[C@H]1CSSC[C@@H](C(N)=O)NC(=O)[C@H](Cc2c[nH]c3ccccc23)NC(=O)[C@H](CCCNC(=N)N)NC(=O)[C@@H](Cc2ccccc2)NC(=O)[C@@H](Cc2ncn(Cc3ccccc3)n2)NC(=O)[C@H](CCC(=O)O)NC1=O` [Compound No. 109] the Ki was 82.7 nM.
